Experimental findings from ChEMBL document CHEMBL5236628 (J Med Chem, 2022) are described below.

In this assay the test system is Plasmodium berghei. In words: Antiplasmodial activity against liver stage Plasmodium berghei ANKA sporozoites expressing GFP infected in HepG2 cells pre-infected with cells for 1 hr prior to compound addition and measured after 48 hrs by flow cytometry analysis. On the technique in general: A flow cytometer gives signals particle by particle.

Take `FC(F)(F)c1noc(-c2ccc(CCN3CCC(Nc4nc5ccccc5[nH]4)CC3)cc2)n1`: the IC50 – broadly, the concentration needed to halve the response being measured – was determined as 0.49 µM. This lies in the sub-micromolar range.

`COc1cc(NC(C)CCCN)c2ncccc2c1` (configuration not stated) [PRIMAQUINE] registered a half-maximal inhibitory concentration (IC50) of 6 µM.
